pIC50: −log10 of the molar value.
What was measured:
Ros1 = target: T1, Ros1 (Homo sapiens, UniProt P08922); test: Kinase inhibitory activity (33P-ATP, filtration-binding method, Reaction Biology Corp.); assay type: biochemical; settings: read-out: Half maximal inhibitory concentration IC50 for kinases, Ros1
T1 construct: purchased Reaction Biology Corp

Chains of the proteins cited; added tags and fusions are not shown. Residues count along the entry.
UniProt P08922, 28-2347: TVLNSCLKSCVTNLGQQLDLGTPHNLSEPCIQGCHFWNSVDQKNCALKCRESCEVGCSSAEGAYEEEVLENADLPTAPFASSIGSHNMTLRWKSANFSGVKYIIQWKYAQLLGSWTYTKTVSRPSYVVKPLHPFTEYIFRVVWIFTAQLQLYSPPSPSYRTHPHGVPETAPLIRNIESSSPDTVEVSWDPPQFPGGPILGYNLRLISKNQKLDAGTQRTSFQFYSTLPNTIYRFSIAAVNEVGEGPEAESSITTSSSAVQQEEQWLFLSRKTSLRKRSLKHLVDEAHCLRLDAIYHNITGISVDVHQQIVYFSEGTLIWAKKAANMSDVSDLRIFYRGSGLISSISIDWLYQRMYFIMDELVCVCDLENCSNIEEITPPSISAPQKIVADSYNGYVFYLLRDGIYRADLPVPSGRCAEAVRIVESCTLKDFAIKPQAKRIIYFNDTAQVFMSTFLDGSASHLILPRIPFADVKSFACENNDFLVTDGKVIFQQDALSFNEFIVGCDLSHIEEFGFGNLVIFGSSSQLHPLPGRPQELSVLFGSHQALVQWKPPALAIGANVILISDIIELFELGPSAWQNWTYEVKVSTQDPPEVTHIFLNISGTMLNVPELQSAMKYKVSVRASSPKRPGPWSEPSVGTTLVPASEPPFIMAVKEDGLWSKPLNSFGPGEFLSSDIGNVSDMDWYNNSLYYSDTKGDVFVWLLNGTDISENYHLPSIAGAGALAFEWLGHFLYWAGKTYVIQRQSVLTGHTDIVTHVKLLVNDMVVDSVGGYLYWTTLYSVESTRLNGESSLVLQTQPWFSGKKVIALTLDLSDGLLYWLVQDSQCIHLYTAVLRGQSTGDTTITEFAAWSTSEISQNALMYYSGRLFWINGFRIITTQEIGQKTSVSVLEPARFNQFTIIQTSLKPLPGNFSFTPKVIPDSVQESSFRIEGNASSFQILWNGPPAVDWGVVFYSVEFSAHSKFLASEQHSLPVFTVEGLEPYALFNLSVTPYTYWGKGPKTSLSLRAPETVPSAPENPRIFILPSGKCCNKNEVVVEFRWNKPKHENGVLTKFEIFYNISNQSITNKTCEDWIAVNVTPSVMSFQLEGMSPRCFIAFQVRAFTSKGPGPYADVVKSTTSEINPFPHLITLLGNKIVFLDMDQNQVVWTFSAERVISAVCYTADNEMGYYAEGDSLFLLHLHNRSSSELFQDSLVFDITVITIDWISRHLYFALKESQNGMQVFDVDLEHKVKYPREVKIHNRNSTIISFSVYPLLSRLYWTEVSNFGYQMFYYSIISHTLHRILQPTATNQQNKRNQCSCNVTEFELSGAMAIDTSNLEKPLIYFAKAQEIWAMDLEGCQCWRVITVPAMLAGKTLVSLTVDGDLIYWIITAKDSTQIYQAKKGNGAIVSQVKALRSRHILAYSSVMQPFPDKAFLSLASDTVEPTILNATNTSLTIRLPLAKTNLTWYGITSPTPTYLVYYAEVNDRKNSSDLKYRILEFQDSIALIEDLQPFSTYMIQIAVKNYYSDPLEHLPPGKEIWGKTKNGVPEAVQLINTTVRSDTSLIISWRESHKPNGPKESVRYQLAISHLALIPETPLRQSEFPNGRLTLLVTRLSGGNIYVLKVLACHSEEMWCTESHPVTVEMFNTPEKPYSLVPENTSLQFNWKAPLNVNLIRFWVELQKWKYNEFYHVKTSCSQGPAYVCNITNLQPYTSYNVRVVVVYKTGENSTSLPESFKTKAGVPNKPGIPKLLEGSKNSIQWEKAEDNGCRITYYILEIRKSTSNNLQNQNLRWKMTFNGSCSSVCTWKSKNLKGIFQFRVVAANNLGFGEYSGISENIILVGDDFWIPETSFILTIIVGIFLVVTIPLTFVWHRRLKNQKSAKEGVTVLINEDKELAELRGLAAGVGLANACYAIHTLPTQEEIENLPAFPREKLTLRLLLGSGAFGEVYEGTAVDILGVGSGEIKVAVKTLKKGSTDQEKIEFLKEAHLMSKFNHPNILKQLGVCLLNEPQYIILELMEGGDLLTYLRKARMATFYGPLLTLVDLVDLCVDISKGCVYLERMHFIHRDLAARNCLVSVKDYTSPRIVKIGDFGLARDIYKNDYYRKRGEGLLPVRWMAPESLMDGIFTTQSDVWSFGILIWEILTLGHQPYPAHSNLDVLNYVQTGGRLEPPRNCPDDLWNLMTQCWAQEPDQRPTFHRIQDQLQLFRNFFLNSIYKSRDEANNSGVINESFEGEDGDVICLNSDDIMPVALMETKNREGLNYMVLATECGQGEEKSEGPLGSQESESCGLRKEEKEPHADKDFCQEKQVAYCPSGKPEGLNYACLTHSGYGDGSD
UniProt P04629, 33-796: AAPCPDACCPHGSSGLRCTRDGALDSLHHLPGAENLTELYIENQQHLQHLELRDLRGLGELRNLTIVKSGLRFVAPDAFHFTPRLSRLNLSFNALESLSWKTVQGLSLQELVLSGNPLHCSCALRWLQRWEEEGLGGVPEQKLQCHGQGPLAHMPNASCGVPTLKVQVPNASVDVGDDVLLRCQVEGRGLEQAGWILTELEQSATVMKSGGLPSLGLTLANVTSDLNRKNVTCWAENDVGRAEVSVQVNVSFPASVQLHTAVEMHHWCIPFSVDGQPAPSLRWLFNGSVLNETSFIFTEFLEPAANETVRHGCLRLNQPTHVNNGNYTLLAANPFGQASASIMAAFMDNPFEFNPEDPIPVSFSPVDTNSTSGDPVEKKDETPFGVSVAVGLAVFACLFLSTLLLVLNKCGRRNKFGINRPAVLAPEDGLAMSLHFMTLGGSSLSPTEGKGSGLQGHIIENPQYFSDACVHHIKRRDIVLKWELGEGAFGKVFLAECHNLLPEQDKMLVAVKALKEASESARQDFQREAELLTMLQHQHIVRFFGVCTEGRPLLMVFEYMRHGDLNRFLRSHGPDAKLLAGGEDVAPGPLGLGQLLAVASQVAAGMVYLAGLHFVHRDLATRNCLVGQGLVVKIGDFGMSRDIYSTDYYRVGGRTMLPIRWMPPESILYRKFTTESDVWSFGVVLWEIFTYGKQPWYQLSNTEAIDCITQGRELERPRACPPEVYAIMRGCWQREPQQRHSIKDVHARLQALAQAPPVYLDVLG
UniProt P04629, 33-796 G595R: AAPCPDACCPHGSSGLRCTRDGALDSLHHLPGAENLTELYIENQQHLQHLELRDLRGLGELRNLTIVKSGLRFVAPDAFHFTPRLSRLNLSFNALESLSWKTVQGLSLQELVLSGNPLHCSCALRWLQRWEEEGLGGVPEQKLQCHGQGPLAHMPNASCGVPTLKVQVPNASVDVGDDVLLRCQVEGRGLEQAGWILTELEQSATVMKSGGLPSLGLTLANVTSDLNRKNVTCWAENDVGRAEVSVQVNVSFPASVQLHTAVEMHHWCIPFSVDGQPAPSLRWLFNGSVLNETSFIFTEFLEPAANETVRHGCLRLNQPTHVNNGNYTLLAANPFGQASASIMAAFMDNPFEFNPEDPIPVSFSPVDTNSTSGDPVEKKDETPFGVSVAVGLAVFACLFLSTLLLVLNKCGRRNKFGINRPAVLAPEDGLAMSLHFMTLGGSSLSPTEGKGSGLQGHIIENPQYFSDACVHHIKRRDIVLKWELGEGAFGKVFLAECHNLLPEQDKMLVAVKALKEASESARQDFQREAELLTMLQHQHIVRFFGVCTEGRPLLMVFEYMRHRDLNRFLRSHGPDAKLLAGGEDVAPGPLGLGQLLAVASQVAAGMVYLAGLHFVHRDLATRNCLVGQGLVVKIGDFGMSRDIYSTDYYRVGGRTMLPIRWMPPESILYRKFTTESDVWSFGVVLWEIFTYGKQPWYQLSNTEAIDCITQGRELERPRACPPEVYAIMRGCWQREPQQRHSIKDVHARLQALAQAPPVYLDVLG
UniProt P04629, whole entry G667A: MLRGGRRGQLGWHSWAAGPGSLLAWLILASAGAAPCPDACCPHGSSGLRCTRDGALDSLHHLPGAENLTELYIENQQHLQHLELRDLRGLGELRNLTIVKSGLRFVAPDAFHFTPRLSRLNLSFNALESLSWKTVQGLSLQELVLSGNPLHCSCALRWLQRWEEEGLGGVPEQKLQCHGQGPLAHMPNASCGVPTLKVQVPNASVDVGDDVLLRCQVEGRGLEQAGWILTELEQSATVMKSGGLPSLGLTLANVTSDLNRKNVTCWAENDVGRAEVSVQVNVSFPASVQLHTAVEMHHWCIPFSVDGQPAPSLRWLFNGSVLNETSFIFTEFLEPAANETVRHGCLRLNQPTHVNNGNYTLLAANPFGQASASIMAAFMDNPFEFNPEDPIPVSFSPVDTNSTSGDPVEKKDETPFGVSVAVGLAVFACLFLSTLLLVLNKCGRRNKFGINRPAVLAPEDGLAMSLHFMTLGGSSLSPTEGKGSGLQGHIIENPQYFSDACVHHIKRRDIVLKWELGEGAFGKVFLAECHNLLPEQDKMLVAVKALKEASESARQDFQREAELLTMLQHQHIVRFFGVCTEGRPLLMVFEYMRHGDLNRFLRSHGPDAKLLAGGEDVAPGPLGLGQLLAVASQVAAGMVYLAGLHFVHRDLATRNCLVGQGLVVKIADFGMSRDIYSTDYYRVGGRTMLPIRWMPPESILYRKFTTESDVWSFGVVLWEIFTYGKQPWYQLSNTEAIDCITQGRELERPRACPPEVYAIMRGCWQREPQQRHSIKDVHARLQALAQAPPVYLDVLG
UniProt P04629, 33-796 G667C: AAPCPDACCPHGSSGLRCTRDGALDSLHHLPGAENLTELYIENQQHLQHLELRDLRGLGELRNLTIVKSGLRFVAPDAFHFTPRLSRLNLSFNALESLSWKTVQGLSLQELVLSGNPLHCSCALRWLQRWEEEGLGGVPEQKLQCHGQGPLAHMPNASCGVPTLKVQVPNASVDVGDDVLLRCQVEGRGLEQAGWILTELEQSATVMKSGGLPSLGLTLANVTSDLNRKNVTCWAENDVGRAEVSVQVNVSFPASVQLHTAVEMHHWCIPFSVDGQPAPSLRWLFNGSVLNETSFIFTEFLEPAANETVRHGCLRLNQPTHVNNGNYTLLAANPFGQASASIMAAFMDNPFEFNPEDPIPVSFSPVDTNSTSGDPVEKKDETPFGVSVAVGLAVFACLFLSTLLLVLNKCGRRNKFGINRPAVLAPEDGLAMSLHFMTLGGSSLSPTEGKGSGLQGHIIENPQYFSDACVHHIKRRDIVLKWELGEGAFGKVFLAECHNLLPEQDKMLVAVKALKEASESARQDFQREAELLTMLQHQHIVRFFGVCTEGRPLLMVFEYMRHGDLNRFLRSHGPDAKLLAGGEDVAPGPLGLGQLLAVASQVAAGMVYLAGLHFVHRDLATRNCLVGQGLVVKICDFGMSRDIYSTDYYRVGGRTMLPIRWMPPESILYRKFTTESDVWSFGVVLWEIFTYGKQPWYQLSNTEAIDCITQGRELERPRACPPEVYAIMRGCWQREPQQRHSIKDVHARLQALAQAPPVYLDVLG

TrkA = target: T2, TrkA (Homo sapiens, UniProt P04629); test: as above; assay type: biochemical; settings: read-out: Half maximal inhibitory concentration IC50 for kinases, TrkA
T2 construct: purchased Reaction Biology Corp

TrkA-G595R = target: T3, TrkA-G595R (Homo sapiens, UniProt P04629, G595R); test: as above; assay type: biochemical; settings: read-out: Half maximal inhibitory concentration IC50 for kinases, TrkA-G595R
T3 construct: purchased Reaction Biology Corp

ALK = target: T4, ALK (Homo sapiens, UniProt Q9UM73); test: as above; assay type: biochemical; settings: read-out: Half maximal inhibitory concentration IC50 for kinases, ALK
T4 construct: purchased Reaction Biology Corp

Ba/F3 SLC34A2-ROS1-WT = target: T5, Ba/F3 SLC34A2-ROS1-WT (Homo sapiens, UniProt P08922); test: Inhibitory activity against cell proliferation (CellTiter-Glo, 72 hours); assay type: cell-based; settings: read-out: Half maximal inhibitory concentration IC50 of cells, Ba/F3 SLC34A2-ROS1-WT
T5 construct: fused on or other part: N-terminal part of SLC34A2 as fusion partner (part of the key); O95436 (Sodium-dependent phosphate transport protein 2B)
Method: (§1) Adenosine Triphosphate (ATP) is an energy carrier commonly used in various life activities in nature, and is the minimum unit for energy storage and transfer. The CellTiter-Glo™ cell viability assay kit uses luciferase as an assay agent, which requires the involvement of ATP in luminescence. The CellTiter-Glo™ reagent is added into cell culture medium to measure the luminescence value. The luminescence signal is directly proportional to the amount of ATP in the system, and the ATP is positively correlated with the number of viable cells. Therefore, the proliferation of cells can be detected by detecting the ATP content using the CellTiter-Glo kit. In this test, the cell lines used are Ba/F3 LMNA-NTRK1-WT, Ba/F3 LMNA-NTRK1-F589L, BaF3 LMNA-NTRK1-G595R, BaF3 LMNA-NTRK1-G667A, BaF3 ETV6-NTRK3-WT, BaF3 ETV6-NTRK3-G623R, and Ba/F3 SLC34A2-ROS1-WT stable cell strains, 5000 cells/well.
(§2) a) Cells in the logarithmic growth phase were collected and counted using a […]. The cell viability was detected by the trypan blue exclusion method, and the cell viability was kept over 90%. […]
(§3) d) The cell plate was placed at room temperature for 20 minutes to stabilize the luminescence signal.
(§4) e) The luminescence value was read.
(§5) The data were analyzed using GraphPad Prism 5.0 software, fitted with nonlinear S-curve regression to give dose-response curves, and IC50 values were calculated therefrom.

BaF3 LMNA-NTRK1-G667A = target: T6, BaF3 LMNA-NTRK1-G667A (Homo sapiens, UniProt P04629, G667A, cells depend on it); test: as above; assay type: cell-based; settings: read-out: Half maximal inhibitory concentration IC50 of cells, BaF3 LMNA-NTRK1-G667A
T6 construct: fused on or other part: N-terminal part of LMNA as fusion partner (part of the key); P02545 (Prelamin-A/C)
Method: as §1, §2, §3, §4, §5

TrkA-G667C = target: T7, TrkA-G667C (Homo sapiens, UniProt P04629, G667C); test: Kinase inhibitory activity (33P-ATP, filtration-binding method, Reaction Biology Corp.); assay type: biochemical; settings: read-out: Half maximal inhibitory concentration IC50 for kinases, TrkA-G667C
T7 construct: purchased Reaction Biology Corp

| Structure (SMILES) | pIC50 (Ros1) | pIC50 (TrkA) | pIC50 (TrkA-G595R) | pIC50 (ALK) | GI50 (Ba/F3 SLC34A2-ROS1-WT) | GI50 (BaF3 LMNA-NTRK1-G667A) | pIC50 (TrkA-G667C) |
| --- | --- | --- | --- | --- | --- | --- | --- |
| C[C@@H]1CCc2ncc(F)cc2[C@H]2CCCN2c2ccn3ncc(c3n2)C(=O)N1 [LOXO-195, reference compound] | 8.94 | – | – | – | – | – | – |
| O=C1NC2(CC2)COc2ncc(F)cc2C2CNCCN2c2ccn3ncc1c3n2 (stereo not drawn) [WX003A] | – | 6.18 | – | – | – | – | – |
| O=C1NC2(CC2)COc2ncc(F)cc2[C@H]2CNCCN2c2ccn3ncc1c3n2 [WX003B] | 8.92 | 8.31 | 8.03 | 7.05 | 51.4 nM | 1.2 nM | 8.77 |

Source: patent US20210403485A1, “PYRAZOLOPYRIMIDINE DERIVATIVE AS SELECTIVE TRK INHIBITOR” (SHANDONG LUYE PHARMACEUTICAL CO., LTD., priority 2018, published 2021)
